The entries are a selection whose mix differs from that of the whole data set. Active and inactive are the calls of the source. No rule for the calls is given here.

Sequences of proteins named here, by UniProt entry; tags and fusion partners are left off.
UniProt P11940, whole entry, looked up: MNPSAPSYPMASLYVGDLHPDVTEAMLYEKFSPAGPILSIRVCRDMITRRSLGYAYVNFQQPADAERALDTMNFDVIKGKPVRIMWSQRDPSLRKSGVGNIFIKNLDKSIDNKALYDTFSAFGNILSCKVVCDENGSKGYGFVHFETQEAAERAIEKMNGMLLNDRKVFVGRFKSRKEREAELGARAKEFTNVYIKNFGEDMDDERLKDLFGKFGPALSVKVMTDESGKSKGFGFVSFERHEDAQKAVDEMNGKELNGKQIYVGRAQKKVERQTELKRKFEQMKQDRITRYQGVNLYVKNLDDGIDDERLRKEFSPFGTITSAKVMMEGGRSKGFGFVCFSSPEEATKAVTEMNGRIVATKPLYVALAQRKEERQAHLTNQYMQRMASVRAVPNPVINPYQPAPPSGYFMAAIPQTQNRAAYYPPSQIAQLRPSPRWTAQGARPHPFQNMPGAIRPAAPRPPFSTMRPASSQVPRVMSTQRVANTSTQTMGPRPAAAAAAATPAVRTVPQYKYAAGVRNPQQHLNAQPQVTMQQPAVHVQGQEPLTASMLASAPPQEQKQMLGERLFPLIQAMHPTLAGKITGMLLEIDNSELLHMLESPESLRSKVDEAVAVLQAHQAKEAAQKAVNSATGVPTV

In the test the target is Polyadenylate-binding protein 1 (Homo sapiens) (UniProt P11940). Kind of test: PABP poly(A) RNA binding inhibitors, primary screen, biochemical, fluorescence polarization, uHTS (AID 2014).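 Also: calls also rest on retests at 20 µM and on dose response follow-up.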 Particulars: at 35 µM, stronger effect = higher value. In general terms: Fluorescence polarisation rises when a labelled molecule tumbles more slowly, as on binding a larger partner.
Consider `CS(=O)(=O)c1cc([N+](=O)[O-])c2no[n+]([O-])c2c1`, for which the inhibition is active: 41.2%.
Turning to `CCOC(=O)Nc1ccc([As](=O)(O)O)c(O)c1`, the inhibition is active: 30.2%.
Consider `O=[N+]([O-])c1cc([N+](=O)[O-])c(CCN2CCOCC2)c([N+](=O)[O-])c1`, for which the inhibition was active: 44.1%.
Consider `C[N+]1=C2C=CC=CC=C2SC12C([N+](=O)[O-])=CC([N+](=O)[O-])=C[C-]2[N+](=O)[O-]` (stereo not given), for which the inhibition was active: 76.6%.
For the molecule `CC(=O)NC(SC(=S)N(C)C)C(Cl)(Cl)Cl` (stereo not given), the inhibition is active: 118%.

The term inhibition denotes the relative decrease from the control value, in per cent.

For the origin of these results see PubChem BioAssay AID2014 (Sanford-Burnham Center for Chemical Genomics, 2009).
